According to PubChem BioAssay (Tox21):
Where “and” joins values, the source holds several entries; their conditions need not be identical. Equal values may be shown once. The list shows a part of the results, in another mix than the full data. Inconclusive results are not listed. Calls of active or inactive are those of the source. The call rests on the fitted dose curve.

Chains of the proteins cited; added tags and fusions are not shown.
UniProt P28223, whole entry: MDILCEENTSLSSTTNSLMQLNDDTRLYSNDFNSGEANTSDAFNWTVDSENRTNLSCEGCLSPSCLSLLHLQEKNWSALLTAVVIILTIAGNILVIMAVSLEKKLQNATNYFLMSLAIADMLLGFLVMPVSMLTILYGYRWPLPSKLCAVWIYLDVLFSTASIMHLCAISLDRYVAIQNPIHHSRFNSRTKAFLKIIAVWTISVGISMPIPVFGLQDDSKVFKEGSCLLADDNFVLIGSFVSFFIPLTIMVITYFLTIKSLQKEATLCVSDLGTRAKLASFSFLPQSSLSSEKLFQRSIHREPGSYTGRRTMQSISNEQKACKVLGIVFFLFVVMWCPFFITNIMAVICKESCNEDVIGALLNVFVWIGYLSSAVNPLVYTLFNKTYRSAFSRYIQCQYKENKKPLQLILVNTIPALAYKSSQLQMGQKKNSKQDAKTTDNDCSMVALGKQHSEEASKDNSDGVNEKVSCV

target: 5-hydroxytryptamine receptor 2A (Homo sapiens) (UniProt P28223); experiment: 5-hydroxytryptamine receptor 2A (HTR2A) small molecule agonists, cell-based qHTS assay (AID 1963587); settings: HTR2A-CHO cells, calcium flux fluorescence, agonist mode; at 35.6 µM (top of the series); further: nearly all actives have a fitted effect of over 30% in size
Description: National Center for Advancing Translational Sciences [NCATS]
Division of Preclinical Innovation [DPI]
U.S. Environmental Protection Agency [EPA]
National Institutes of Environmental Health Sciences [NIEHS]
National Toxicology Program [NTP]
U.S. Food and Drug Administration [FDA]
The HTR2A receptor is a subtype of the 5-HT2 receptor that belongs to the serotonin receptor family and is a G protein-coupled receptor (GPCR). The HTR2A-CHO cell line stably expressing human 5-hydroxytryptamine receptor 2A (HTR2A) can be used for screening agonists of interactions between 5-HT2 and its ligands. The HTR2A-CHO calcium flux assay is a homogeneous fluorescence-based assay for detecting the intracellular calcium level using FDSS kinetic plate reader system.
HTR2A-CHO cells were dispensed at 2000 cells/3uL/well in 1536-well black-clear bottom plates using a Multidrop Dispenser. After the assay plates were incubated at a 37 C/5% CO2 incubator for 18 h, 3 uL of Dye Loading Buffer was transferred to the assay plate by a Flying Reagent Dispenser. The assay plates were incubated at 37 C for 1h. For agonist mode, 23 nL of compounds dissolved in DMSO, positive controls or DMSO only was transferred to the assay plate by a pin tool. The fluorescence intensity in the plates was measured using FDSS 7000EX kinetic plate reader for 2 min at 1 sec intervals.
On the % scale 0 is the no-effect control and ±100 the full control effect.

Structure (SMILES)	activation
OCCSCCO	inactive: -0.583%

same assay, conditions: HTR2A-CHO cells, calcium flux fluorescence, agonist mode; at 76.8 µM (top of the series)

Structure (SMILES)	activation
OCCSCCO	inactive: -0.555%

same assay, conditions: HTR2A-CHO cells, calcium flux fluorescence, agonist mode; at 76.8 µM (top of the series) unless noted

Structure (SMILES)	activation
Cc1c([N+](=O)[O-])cccc1[N+](=O)[O-]	inactive: -2.02% and inactive: -0.488%
CCOP(=O)(CC)OCC	inactive: 0.292%
O=[N+]([O-])OCC(CO[N+](=O)[O-])(CO[N+](=O)[O-])CO[N+](=O)[O-]	inactive: -0.0219%
COP(C)(=O)OC	inactive: -0.813% and inactive: 4.68%
C/C1=C2N=C(/C=C3N=C(/C(C)=C4\[N-][C@@](C)([C@@H]5N=C1[C@](C)(CCC(=O)NC[C@@H](C)OP(=O)([O-])O[C@H]1[C@@H](O)[C@@H](n6cnc7cc(C)c(C)cc76)O[C@@H]1CO)[C@H]5CC(N)=O)[C@@](C)(CC(N)=O)[C@@H]4CCC(N)=O)[C@@](C)(CC(N)=O)[C@@H]\3CCC(N)=O)C(C)(C)[C@@H]/2CCC(N)=O.[C-]#N.[Co+3]	inactive: -15.1% [at 35.6 µM]
CC(C)N(CCO)C(C)C	inactive: 3.23%
CC(C)OP(C)(=O)OC(C)C	inactive: 8.98% and inactive: 0.686%
COc1ccc([N+](=O)[O-])cc1[N+](=O)[O-]	inactive: -2.97%
CP(=O)(O)OCCC[Si](O)(O)O	inactive: -0.891%
Nc1cc([N+](=O)[O-])cc([N+](=O)[O-])c1O	inactive: 1.05%
N=C(N)N[N+](=O)[O-]	inactive: -1.34%
N#CBr	inactive: 2.29%
O=[N+]([O-])c1cccc([N+](=O)[O-])c1	inactive: -1.97%
CCOP(=O)(CC)Oc1ccc([N+](=O)[O-])cc1 (configuration not stated)	inactive: -0.408% [at 35.6 µM]
[NH4+].[O-][Cl+3]([O-])([O-])[O-]	inactive: -0.704% and inactive: -2.98%
Cc1ccc([N+](=O)[O-])cc1[N+](=O)[O-]	inactive: -1.84% and inactive: -1.2%
CCN(CC)CCCl	inactive: -1.35%
O=[N+]([O-])[O-].[NH4+]	inactive: -1% and inactive: -4.87%
Cc1cccc([N+](=O)[O-])c1[N+](=O)[O-]	inactive: 2.32% [at 35.6 µM]
CN(C)CCCl	inactive: 2.9%
